Measured values taken from PubChem BioAssay AID742 (SRMLSC, 2007).
The entries are a selection whose mix differs from that of the whole data set. Active and inactive are the calls of the source. The rule behind the calls is not given here.

Key:
[1] = tested on: human cells, Her2 expression AlphaScreen; CTG viability; experiment: Her2 expression suppression with viability readout – cell-based, AlphaScreen, CellTiter-Glo viability, dose response (AID 742); conditions: viability, CellTiter-Glo
[2] = as above; conditions: human cells, Her2 expression AlphaScreen; CTG viability; at 9.62 µM (top of the series)

With CCc1nc2c(n1)c1c(non1O)c1c2no[n+]1[O-] the EC50 [1] was over 9.62 µM and the Her2 inhibition [2] was inactive: 7.44%.
